Biological target: T1, HLA A*0201 (soluble recombinant pMHCI) (Homo sapiens, UniProt P04439, D140Y/D185E/D98H/E176V/E277Q/G131W/G231S/I119V/I121R/I166T/I218V/L300P/L318F/N151K/N90K/P208A/P217A/Q86G/Q94H/R138H/R169H/T345S)
T1 construct: made in house
Assay: Real time SPR pMHC stability assay
Type: binding

CC(C)C[C@H](NC(=O)[C@@H](N)Cc1ccc(O)cc1)C(=O)N[C@@H](CCC(=O)O)C(=O)N1CCC[C@H]1C(=O)NCC(=O)N1CCC[C@H]1C(=O)N[C@H](C(=O)N[C@@H](C)C(=O)O)C(C)C
Koff: 330000 s⁻¹
